According to PubChem BioAssay AID1377 (University of Pittsburgh Molecular Library Screening Center, 2008):
This is a selection; strong and weak results do not stand in their true shares. Activity calls are given as the source filed them.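 How the source made its calls: active means activation, scaled between plate controls, above about 75% (limit read from the data); inactive means activation under that limit.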

Test: rescue of L929 cells from zVAD death – primary screen (AID 1377);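 further: 0% = zVAD with DMSO and 100% = DMSO alone without zVAD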
Details: L929 zVAD necroptosis rescue, ATP luminescence, 24 h, at 10 µM, stronger effect = higher value; with zVAD 60 µM unless noted

SMILES	viability rescue
CS(=O)(=O)c1cc([N+](=O)[O-])c2no[n+]([O-])c2c1	inactive: -0.49%
CN(C(=O)Cc1ccccc1)[C@@H]1CC[C@]2(CCCO2)C[C@H]1N1CCCC1	inactive: -0.71%
CCOP1(=S)c2c(C)nn(CCC#N)c2N=C(c2ccc(F)cc2)N1C (stereo not drawn)	inactive: -0.38% [with zVAD 20 µM]
O=[N+]([O-])c1ccc2c(c1)nnn2O	inactive: 1.4%
NC(=O)Nc1ccc([As](=O)(O)O)cc1	inactive: -0.41%
O=[As](O)(c1cccc(O)c1)c1cccc(O)c1	inactive: 0.53%
Cc1cccc(OCC(=O)OC2CN3CCC2CC3)c1 (stereo not drawn)	inactive: 0.08%
O=C(OC1CN2CCC1CC2)c1ccc(Cl)cc1 (stereo not drawn)	inactive: 0.34%
O=[As](O)(O)c1cccnc1	inactive: -0.18%
COc1cc(C2NCCC3(OCCO3)C2(C)C)cc(OC)c1OC (stereo not drawn)	inactive: 0.11%
Nc1cccc2c([As](=O)(O)O)cccc12	inactive: 0.91%
Cc1ccc(NCCc2c([N+](=O)[O-])cc([N+](=O)[O-])cc2[N+](=O)[O-])cc1	inactive: 0.32%
CCCOP(=S)(Nc1nc(N)cc(=O)[nH]1)OCCC	inactive: 0.54%
CC(C)(C)C(=O)NC(Sc1ncccn1)C(Cl)(Cl)Cl (stereo not drawn)	inactive: 0.12%
Clc1n[nH]nc1-c1nn[nH][15n]1	inactive: -0.37% [with zVAD 20 µM]
O=P1(Nc2ccccn2)COc2ccccc2OC1	inactive: 0.04% [with zVAD 20 µM]
CCOP(=O)(Nc1ccc(C)cn1)OCC	inactive: 0.55%
CC(C)/C=N\N=C(\N)N[N+](=O)[O-]	inactive: 0.73%
CC1(CBr)Cn2c(nc3ccccc3c2=O)S1 (stereo not drawn)	inactive: -0.45%
O=[As](O)(c1ccccc1Br)c1ccccc1Br	inactive: 0.1%
O=C(/C=C/c1ccccc1)OC1CN2CCC1CC2 (stereo not drawn)	inactive: 0.15%
CC1CCC(C(C)C)C(OP(=O)(Nc2ccccn2)c2ccccc2)C1 (stereo not drawn)	inactive: -0.21%
Cc1nn(-c2ccccc2)c2c1P(=O)(N1CCOCC1)N(C)C(c1ccccc1)=N2 (stereo not drawn)	inactive: -0.47% [with zVAD 20 µM]
Nc1cccc([As](=O)(O)c2ccccc2)c1	inactive: -1.24%
O=P1(Nc2ccc(Br)cn2)COc2ccccc2OC1	inactive: 2.05% [with zVAD 20 µM]
O=[As](O)(c1cccs1)c1cccs1	inactive: 0.06%
Cc1ccc(OCC(=O)OC2CN3CCC2CC3)cc1 (stereo not drawn)	inactive: 0.29% [with zVAD 20 µM]
O=P1(Nc2ncccn2)COc2ccccc2OC1	inactive: 1.05% [with zVAD 20 µM]
